# Legend:
# [1] = target: T1, Polyamine deacetylase HDAC10 (Homo sapiens, UniProt Q969S8); assay: Inhibition of HDAC10 (unknown origin)
# T1 sequence (Q969S8 whole entry): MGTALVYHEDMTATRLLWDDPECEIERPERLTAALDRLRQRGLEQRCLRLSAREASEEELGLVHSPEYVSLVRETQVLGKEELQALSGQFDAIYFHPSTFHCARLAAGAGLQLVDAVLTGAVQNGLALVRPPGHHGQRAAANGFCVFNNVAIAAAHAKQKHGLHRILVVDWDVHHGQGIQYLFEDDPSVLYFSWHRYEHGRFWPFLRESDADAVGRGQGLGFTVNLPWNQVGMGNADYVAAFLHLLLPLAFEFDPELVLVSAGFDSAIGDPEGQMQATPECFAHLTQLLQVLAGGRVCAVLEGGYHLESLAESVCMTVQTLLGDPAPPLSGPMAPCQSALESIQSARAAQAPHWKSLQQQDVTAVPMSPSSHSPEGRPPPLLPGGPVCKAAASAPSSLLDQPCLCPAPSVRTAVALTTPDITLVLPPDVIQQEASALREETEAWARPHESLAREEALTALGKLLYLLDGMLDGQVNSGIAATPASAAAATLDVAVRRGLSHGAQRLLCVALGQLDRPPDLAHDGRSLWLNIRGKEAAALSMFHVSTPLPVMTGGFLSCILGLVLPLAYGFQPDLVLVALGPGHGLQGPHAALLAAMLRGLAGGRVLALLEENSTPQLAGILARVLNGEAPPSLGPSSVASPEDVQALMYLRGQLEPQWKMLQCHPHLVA
# Histone deacetylase 8 = target: T2, Histone deacetylase 8 (Homo sapiens, UniProt Q9BY41); assay: Inhibition of HDAC8 (unknown origin)
# T2 sequence (Q9BY41 whole entry): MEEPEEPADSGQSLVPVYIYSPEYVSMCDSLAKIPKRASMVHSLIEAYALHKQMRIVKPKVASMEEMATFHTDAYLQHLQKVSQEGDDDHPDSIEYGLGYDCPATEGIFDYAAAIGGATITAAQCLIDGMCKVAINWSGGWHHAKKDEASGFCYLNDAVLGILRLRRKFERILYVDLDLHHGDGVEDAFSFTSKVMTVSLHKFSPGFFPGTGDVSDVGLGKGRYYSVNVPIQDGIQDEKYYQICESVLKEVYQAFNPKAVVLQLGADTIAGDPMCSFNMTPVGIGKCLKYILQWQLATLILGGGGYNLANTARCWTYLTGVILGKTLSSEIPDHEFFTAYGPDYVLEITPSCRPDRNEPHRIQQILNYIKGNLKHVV
compound,measurement,setting,value
O=C(CCCCCCC(=O)Nc1ccccc1)NO [VORINOSTAT],IC50,[1],31 nM
same,IC50,Histone deacetylase 8,22 nM

# Source: ChEMBL document CHEMBL5550109, “Synergistic therapeutics: Co-targeting histone deacetylases and ribonucleotide reductase for enhanced cancer treatment” (Eur J Med Chem, 2024)
